Experimental findings from patent US7652028B2, “Indenoisoquinolinone analogs and methods of use thereof” (Inotek Pharmaceuticals Corporation, priority 2005, dated 2010) are described below.

Sequences of proteins named here, by UniProt entry; tags and fusion partners are left off.
UniProt P11103, whole entry: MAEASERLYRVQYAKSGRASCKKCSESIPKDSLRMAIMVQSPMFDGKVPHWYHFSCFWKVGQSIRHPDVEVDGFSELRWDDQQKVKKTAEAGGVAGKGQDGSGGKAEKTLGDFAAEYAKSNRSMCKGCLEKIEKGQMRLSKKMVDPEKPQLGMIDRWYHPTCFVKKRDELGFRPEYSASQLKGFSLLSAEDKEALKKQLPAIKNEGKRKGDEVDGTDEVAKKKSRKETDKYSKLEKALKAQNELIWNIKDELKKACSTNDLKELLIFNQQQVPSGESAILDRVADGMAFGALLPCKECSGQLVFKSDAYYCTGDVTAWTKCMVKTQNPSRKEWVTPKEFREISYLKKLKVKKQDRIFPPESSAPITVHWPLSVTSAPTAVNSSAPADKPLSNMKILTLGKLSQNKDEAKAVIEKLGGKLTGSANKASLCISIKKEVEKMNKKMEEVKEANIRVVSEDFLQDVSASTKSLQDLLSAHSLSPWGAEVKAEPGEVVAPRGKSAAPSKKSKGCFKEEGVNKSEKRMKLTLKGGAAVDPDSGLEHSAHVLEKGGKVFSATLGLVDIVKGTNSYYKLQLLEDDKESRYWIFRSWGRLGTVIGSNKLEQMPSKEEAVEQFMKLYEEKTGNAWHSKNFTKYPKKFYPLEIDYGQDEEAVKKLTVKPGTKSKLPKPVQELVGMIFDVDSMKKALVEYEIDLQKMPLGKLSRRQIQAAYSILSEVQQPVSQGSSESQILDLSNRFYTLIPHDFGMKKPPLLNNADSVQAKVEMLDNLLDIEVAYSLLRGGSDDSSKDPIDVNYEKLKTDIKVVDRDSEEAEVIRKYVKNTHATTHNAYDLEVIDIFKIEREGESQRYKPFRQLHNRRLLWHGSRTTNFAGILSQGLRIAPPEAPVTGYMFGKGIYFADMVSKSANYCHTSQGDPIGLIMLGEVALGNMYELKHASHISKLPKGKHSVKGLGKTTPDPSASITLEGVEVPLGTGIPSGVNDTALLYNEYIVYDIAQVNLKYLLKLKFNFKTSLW

The target in one assay is PARP (Mus musculus, UniProt P11103). The experiment in a line: PARP activity in hydrogen peroxide-stimulated murine RAW macrophages, whole-cell based assay (3H-NAD+ incorporation). As to conditions: read-out: EC50 value, hydrogen peroxide (0.5 mM) for 25 minutes after 1 hour pretreatment. Here is the method: The murine RAW macrophages (ATCC, American Type Culture Collection, Manassas, Va.) were grown in RPMI 1650 (Invitrogen Life Technologies; Carlsbad, Calif.) medium supplemented with 10% heat-inactivated FBS, 2 mM L-glutamine, and 100 U/ml of penicillin and streptomycin. Cells, between passages 5 and 15, were seeded at a density of 250,000 cells/well in 12 well plates and allowed to grow 48 hours before use. Growth medium was changed on the day of use. Cells were treated with an Indenoisoquinolinone Analog diluted in a growth medium supplemented with 10% fetal bovine serum (FBS) for 1 hour prior to the addition of hydrogen peroxide (0.5 mM) for a further 25 minutes. For the measurement of PARP activity, media was removed and replaced with 0.5 ml of the assay buffer (56 mM HEPES-pH 7.5, 28 mM KCl, 28 mM NaCl, 2 mM MgCl2, 0.01% digitonin, and 0.5 μCi/ml of 3H-NAD^+) for 20 minutes. After aspirating the assay buffer, cells were lysed and transferred to eppendorf tubes containing 250 μl of 50% ice-cold trichloroacetic acid (TCA), which were then placed at 4° C. for 4 hours. Samples were centrifuged at 10,000 g for 10 minutes and supernatant removed. The pellets were washed twice with 500 μl of ice-cold 5% w/v TCA. The pellets were then solubilized in 250 μl of NaOH (0.1 M) containing 2% SDS overnight at 37° C. and the PARP activity was then determined by measuring the radioactivity incorporated using a Wallac scintillation counter. The solubilized protein (250 μl) was mixed with 5 ml of scintillation fluid (ScintiSafe Plus, Fisher Scientific) before being counted for 3 minutes. EC50 values were determined from a dose-response curve.
For the compound `O=c1[nH]c2c(c3ccccc13)Cc1cc(CN3CCN(CCO)CC3)ccc1-2`, the EC50 turned out to be 40 nM. In the case of `O=c1[nH]c2c(c3ccccc13)Cc1c(CN3CCCC3)cccc1-2`, the EC50 stood at 12 nM.

As for `CCCNCc1cccc2c1Cc1c-2[nH]c(=O)c2ccccc12`, the concentration giving a half-maximal response (EC50) is less than 5 nM. Take `CN(Cc1ccccc1)Cc1ccc2c(c1)Cc1c-2[nH]c(=O)c2ccccc12`: the EC50 was determined as 30 nM.

In the case of `O=c1[nH]c2c(c3ccccc13)Cc1c(CN3CCCC(O)C3)cccc1-2` (stereo not shown), the EC50 came out at 10 nM.

As to `CNCc1cccc2c1Cc1c-2[nH]c(=O)c2ccccc12`, the EC50 amounted to 8 nM. For `O=c1[nH]c2c(c3ccccc13)Cc1c(CNC3CCCC3)cccc1-2`, the EC50 is less than 10 nM.

On to `CC1CCN(Cc2cccc3c2Cc2c-3[nH]c(=O)c3ccccc23)CC1`, for which the EC50 is 30 nM. Regarding `O=c1[nH]c2c(c3ccccc13)Cc1c(CN3CC[C@@H](O)C3)cccc1-2` [(I)(256)], the EC50 was determined as 50 nM.

In the case of `O=c1[nH]c2c(c3ccccc13)Cc1c(CN3CCC(N4CCCC4)CC3)cccc1-2`, the 50% effective concentration (EC50) came out at 15 nM. Same read-out and setting: under `O=c1[nH]c2c(c3ccccc13)Cc1cc(CN3CCC(N4CCCCC4)CC3)ccc1-2` stands 30 nM. Same read-out and setting: under `CN(Cc1cccc2c1Cc1c-2[nH]c(=O)c2ccccc12)C1CCCCC1` stands 3 nM; under `O=c1[nH]c2c(c3ccccc13)Cc1cc(CN3CCC(N4CCCC4)CC3)ccc1-2`, 35 nM. On to `CN(Cc1ccc2c(c1)Cc1c-2[nH]c(=O)c2ccccc12)C1CCCCC1`, for which the half-maximal effective concentration (EC50) stood at 25 nM. As for `O=c1[nH]c2c(c3ccccc13)Cc1cc(CNCCCN3CCOCC3)ccc1-2`, the EC50 was less than 10 nM.

For the compound `CC(C)NCc1cccc2c1Cc1c-2[nH]c(=O)c2ccccc12`, the EC50 is less than 5 nM. With `O=c1[nH]c2c(c3ccccc13)Cc1cc(CN3CCCCC3)ccc1-2`, the concentration for a half-maximal effect (EC50) came to 25 nM. The same measure, in the same setting: under `CN(CCO)Cc1cccc2c1Cc1c-2[nH]c(=O)c2ccccc12` stands 9 nM; under `CN1CCN(Cc2cccc3c2Cc2c-3[nH]c(=O)c3ccccc23)CC1`, 35 nM; under `CCNCc1cccc2c1Cc1c-2[nH]c(=O)c2ccccc12`, 5 nM. Turning to `CCCCNCc1cccc2c1Cc1c-2[nH]c(=O)c2ccccc12`, the half-maximal effective concentration (EC50) was found to be 5.5 nM. Take `CN(C)CCN1CCN(Cc2cccc3c2Cc2c-3[nH]c(=O)c3ccccc23)CC1`: the EC50 is 40 nM. In the case of `O=c1[nH]c2c(c3ccccc13)Cc1cc(CNCCCc3ccccn3)ccc1-2`, the EC50 amounted to 45 nM. For the compound `O=c1[nH]c2c(c3ccccc13)Cc1c(CN3CCC(O)CC3)cccc1-2`, the concentration for a half-maximal effect (EC50) is less than 10 nM. Still for that read-out and setting: under `O=c1[nH]c2c(c3ccccc13)Cc1cc(CNCCN3CCCCC3)ccc1-2` stands 20 nM; under `COCCN1CCN(Cc2ccc3c(c2)Cc2c-3[nH]c(=O)c3ccccc23)CC1`, 45 nM; under `CC(C)N(C)Cc1cccc2c1Cc1c-2[nH]c(=O)c2ccccc12`, 50 nM. Consider `CC(C)N(Cc1cccc2c1Cc1c-2[nH]c(=O)c2ccccc12)C(C)C`, for which the EC50 is 20 nM. For `O=c1[nH]c2c(c3ccccc13)Cc1cc(CN3CC[C@@H](O)C3)ccc1-2` [(IIa)(225)], the EC50 is 40 nM. On the same count and under the same terms, to `O=c1[nH]c2c(c3ccccc13)Cc1cc(CN3CCC(O)CC3)ccc1-2` belongs 30 nM. `O=c1[nH]c2c(c3ccccc13)Cc1cc(CN3CCSCC3)ccc1-2`: the 50% effective concentration (EC50) was 50 nM. With `O=c1[nH]c2c(c3ccccc13)Cc1c(CNC3CCCCC3)cccc1-2`, the half-maximal effective concentration (EC50) was less than 10 nM. Turning to `O=C1CCN(Cc2cccc3c2Cc2c-3[nH]c(=O)c3ccccc23)CC1`, the EC50 amounted to 20 nM.

For `CCOC(=O)CN1CCN(Cc2ccc3c(c2)Cc2c-3[nH]c(=O)c3ccccc23)CC1`, the EC50 turned out to be 50 nM.

Regarding `CCN(Cc1cccc2c1Cc1c-2[nH]c(=O)c2ccccc12)C1CCCCC1`, the concentration for a half-maximal effect (EC50) was less than 10 nM. On to `O=c1[nH]c2c(c3ccccc13)Cc1c(CN3CCC3)cccc1-2`, for which the EC50 is 15 nM. As for `O=c1[nH]c2c(c3ccccc13)Cc1c(CN3CC[C@@H](O)C3)cccc1-2` [(I)(246)], the EC50 is 30 nM. Still for that read-out and setting: to `CN(CCc1ccccn1)Cc1cccc2c1Cc1c-2[nH]c(=O)c2ccccc12` belongs 40 nM; to `O=c1[nH]c2c(c3ccccc13)Cc1cc(CN3CC[C@@H](O)C3)ccc1-2` [(IIa)(221)], 30 nM; to `O=c1[nH]c2c(c3ccccc13)Cc1c(CNC3CCCCCC3)cccc1-2`, less than 10 nM.

In the case of `COCCNCc1cccc2c1Cc1c-2[nH]c(=O)c2ccccc12`, the EC50 is 8 nM.

On to `O=c1[nH]c2c(c3ccccc13)Cc1c(CN3CCCCC3)cccc1-2`, for which the EC50 was less than 10 nM. Regarding `CC(C)N(Cc1cccc2c1Cc1c-2[nH]c(=O)c2ccccc12)C1CCCCC1`, the 50% effective concentration (EC50) was 15 nM. As for `O=c1[nH]c2c(c3ccccc13)Cc1c(CN(CCO)C3CCCCC3)cccc1-2`, the EC50 was less than 10 nM.

`O=c1[nH]c2c(c3ccccc13)Cc1cc(CN3CCC[C@@H](O)C3)ccc1-2`: the EC50 worked out at 15 nM.

For the compound `O=c1[nH]c2c(c3ccccc13)Cc1cc(CN3CCC[C@@H]3CO)ccc1-2`, the EC50 is 20 nM. Take `O=c1[nH]c2c(c3ccccc13)Cc1cc(CNCCCn3ccnc3)ccc1-2`: the EC50 was determined as 30 nM. Consider `COC(=O)C(NCc1cccc2c1Cc1c-2[nH]c(=O)c2ccccc12)C(C)C` (stereo not shown), for which the EC50 was 50 nM. In the case of `CCN(C)Cc1cccc2c1Cc1c-2[nH]c(=O)c2ccccc12`, the EC50 amounted to 8 nM. As for `O=c1[nH]c2c(c3ccccc13)Cc1c(CN3CCSCC3)cccc1-2`, the concentration giving a half-maximal response (EC50) is 14 nM.

With `O=c1[nH]c2c(c3ccccc13)Cc1cc(CN3CCN(CC4CCCCC4)CC3)ccc1-2`, the EC50 was determined as 50 nM. For the compound `O=c1[nH]c2c(c3ccccc13)Cc1c(CNCC3CCCCC3)cccc1-2`, the EC50 is less than 10 nM. Regarding `O=c1[nH]c2c(c3ccccc13)Cc1c(CN3CCC(CO)CC3)cccc1-2`, the EC50 is 10 nM. The same measure, in the same setting: to `COCCN(CCOC)Cc1ccc2c(c1)Cc1c-2[nH]c(=O)c2ccccc12` belongs 20 nM; to `O=c1[nH]c2c(c3ccccc13)Cc1cc(CN3CCC(c4ccccc4)CC3)ccc1-2`, less than 10 nM; to `CCOC1CCN(Cc2ccc3c(c2)Cc2c-3[nH]c(=O)c3ccccc23)CC1`, 15 nM. Same read-out and setting: to `CN(Cc1ccco1)Cc1cccc2c1Cc1c-2[nH]c(=O)c2ccccc12` belongs 28 nM; to `O=c1[nH]c2c(c3ccccc13)Cc1c(CNC3CCC(O)CC3)cccc1-2` (stereo not shown), 20 nM; to `O=c1[nH]c2c(c3ccccc13)Cc1cc(CN3CCCC3)ccc1-2`, 20 nM. In the case of `CCN1CCN(Cc2ccc3c(c2)Cc2c-3[nH]c(=O)c3ccccc23)CC1`, the EC50 turned out to be 30 nM.

Staying with this assay, now noted: read-out: EC50 value, hydrogen peroxide (0.5 mM) for 25 minutes after 1 hour pretreatment, tested form: methanesulfonate (shown by the NMR sampl).
Regarding `CCCN(C)Cc1cccc2c1Cc1c-2[nH]c(=O)c2ccccc12`, the EC50 was determined as 3 nM.

By EC50 is commonly meant the concentration that produces a half-maximal response.
